# Columns and labels:
# [1] = target: T1, Galanin receptor type 2 (Homo sapiens) (UniProt O43603); test: Displacement of [125I]galanin from GalR2 at 1 uM by gamma counting
# T1 sequence (whole entry): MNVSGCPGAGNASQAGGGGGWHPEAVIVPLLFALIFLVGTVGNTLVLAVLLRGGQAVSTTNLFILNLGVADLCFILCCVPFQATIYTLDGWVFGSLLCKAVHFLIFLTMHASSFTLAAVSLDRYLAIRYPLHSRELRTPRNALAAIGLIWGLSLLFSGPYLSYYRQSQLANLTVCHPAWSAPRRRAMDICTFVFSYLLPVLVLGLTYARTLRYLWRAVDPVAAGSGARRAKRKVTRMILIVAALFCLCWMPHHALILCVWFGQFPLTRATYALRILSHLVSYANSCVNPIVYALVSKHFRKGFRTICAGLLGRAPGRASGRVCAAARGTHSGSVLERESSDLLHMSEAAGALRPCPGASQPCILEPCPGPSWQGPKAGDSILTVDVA
# Outline: (§1)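 Single-point screen at 1 and 10 μM, in duplicate, with two screens per receptor. Final 125I porcine galanin was 0.1 nM (GalR1) or 0.15 nM (GalR2). Incubation 1 h, room temperature. Filtration through PEI-treated glass fibre, cold PBS/Triton washes, γ-counting.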
# [2] = target: T1, Galanin receptor type 2 (Homo sapiens); test: Displacement of [125I]galanin from GalR2 at 10 uM by gamma counting; outline: as §1
inhibition [1] [%],inhibition [2] [%],SMILES
> 50,> 50,COc1ccc(Nc2nc(Nc3ccc(OC(F)F)cc3)cc(N3CCCCC3)n2)cc1
> 50,> 50,COc1ccc(Nc2nc(Nc3ccc(OC)c(F)c3)cc(N3CCN(c4ncccn4)CC3)n2)cc1
> 50,> 50,COc1ccc(Nc2nc(Nc3ccc(OC)c(F)c3)cc(N3CCCCC3C)n2)cc1 (centres undefined)
> 50,> 50,COc1ccc(Nc2nc(Nc3ccc(OC)c(F)c3)cc(N3CCC(N4CCCCC4)CC3)n2)cc1
> 50,> 50,COc1ccc(Nc2nc(Nc3ccc(OC)c(F)c3)cc(N3CCCC3)n2)cc1
> 50,> 50,COc1ccc(Nc2nc(Nc3ccc(OC)c(F)c3)cc(N3CCC(C)CC3)n2)cc1
> 50,> 50,FC(F)(F)Oc1ccc(Nc2cc(Nc3ccccc3)nc(N3CCCCC3)n2)cc1

# Reference: ChEMBL document CHEMBL1921679, “Synthesis and biological evaluation of novel pyrimidine derivatives as sub-micromolar affinity ligands of GalR2” (Bioorg Med Chem Lett, 2011)
